The IC50 is the midpoint of a concentration-inhibition curve.

By UniProt entry, the sequences of proteins in these tests, tags left out. Residues count along the entry.
UniProt P53634, 395-463 limits assumed: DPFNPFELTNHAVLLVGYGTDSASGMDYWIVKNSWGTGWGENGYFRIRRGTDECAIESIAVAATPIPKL
UniProt P53634, 25-134 limits assumed: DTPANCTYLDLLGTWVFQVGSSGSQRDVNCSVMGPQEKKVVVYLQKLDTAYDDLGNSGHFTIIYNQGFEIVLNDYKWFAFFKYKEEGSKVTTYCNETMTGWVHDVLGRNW
UniProt P53634, 231-394 limits assumed: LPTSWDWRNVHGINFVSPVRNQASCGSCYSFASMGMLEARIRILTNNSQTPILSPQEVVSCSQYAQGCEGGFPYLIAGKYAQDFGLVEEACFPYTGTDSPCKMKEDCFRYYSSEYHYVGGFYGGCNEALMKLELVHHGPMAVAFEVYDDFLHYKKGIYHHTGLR

This experiment deals with Dipeptidyl peptidase 1 (Homo sapiens, UniProt P53634). As to the kind of experiment: Inhibition of DPP1 in human U937 cells using Gly-Phe-AFC as substrate preincubated for 60 mins followed by substrate addition by fluorescence assay. Format: cell-based, U-937.

With `N#Cc1ccc(-c2ccc(C[C@@H](C#N)NC(=O)C3(N)CCOCC3)cc2)cc1`, the IC50 is 7.94 nM.

The values are drawn from ChEMBL document CHEMBL3856275, “Discovery of Second Generation Reversible Covalent DPP1 Inhibitors Leading to an Oxazepane Amidoacetonitrile Based Clinical Candidate (AZD7986)” (J Med Chem, 2016).
